Earlier results as cited in patent US12618845B2, “Methods and compositions for protein sequencing” (Quantum-Si Incorporated, priority 2018, dated 2026).
Entries after “also recorded” stand apart in the source; their conditions may differ.

System: amino acid at a terminal position of a polypeptide
Settings: amino acid identity at a terminal position of a polypeptide; phospho-Y also at an internal position; cited from earlier work

## H. sapiens p62 protein: amino acid recognition protein, SEQ ID NO: 29
  Binding Pref.: K, R, H,; also recorded: W, F, Y
